Source: US20030175817A1 (published 2003)

Protein sequences, listed by entry. Tags and fused reporters are not part of them. Lines headed by an entry give the natural chain unless they say otherwise; changes in a name come on top.
UniProt P10275: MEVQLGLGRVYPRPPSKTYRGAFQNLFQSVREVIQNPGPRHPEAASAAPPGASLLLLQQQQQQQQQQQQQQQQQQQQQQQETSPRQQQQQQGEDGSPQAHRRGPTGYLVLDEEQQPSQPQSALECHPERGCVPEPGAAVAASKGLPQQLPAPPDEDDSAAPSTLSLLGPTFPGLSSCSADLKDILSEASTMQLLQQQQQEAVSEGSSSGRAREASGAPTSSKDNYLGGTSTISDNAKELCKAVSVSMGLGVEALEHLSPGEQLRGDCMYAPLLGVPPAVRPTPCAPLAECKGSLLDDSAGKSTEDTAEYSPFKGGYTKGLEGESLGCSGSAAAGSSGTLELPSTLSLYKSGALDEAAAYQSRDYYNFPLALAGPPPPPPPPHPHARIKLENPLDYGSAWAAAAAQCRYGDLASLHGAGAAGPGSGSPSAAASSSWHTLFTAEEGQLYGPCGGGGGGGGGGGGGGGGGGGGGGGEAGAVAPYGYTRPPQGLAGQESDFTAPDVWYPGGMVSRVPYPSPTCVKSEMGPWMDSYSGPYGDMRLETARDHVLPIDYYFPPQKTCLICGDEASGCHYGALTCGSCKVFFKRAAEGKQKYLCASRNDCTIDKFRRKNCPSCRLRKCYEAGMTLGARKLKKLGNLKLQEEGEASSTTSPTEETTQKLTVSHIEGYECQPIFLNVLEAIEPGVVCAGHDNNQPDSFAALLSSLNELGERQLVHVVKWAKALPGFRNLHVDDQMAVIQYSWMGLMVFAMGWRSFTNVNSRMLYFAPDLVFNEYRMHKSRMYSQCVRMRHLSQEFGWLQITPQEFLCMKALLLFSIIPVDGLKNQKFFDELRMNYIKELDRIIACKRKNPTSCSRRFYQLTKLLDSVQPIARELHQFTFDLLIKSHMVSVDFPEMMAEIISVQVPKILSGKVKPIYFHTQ

Biological target: androgen receptor (AR) (Homo sapiens, UniProt P10275)
Assay: ARE-CAT reporter assay in AR-transfected MDAH041 cells, with or without cyclin E
Settings: for AR function (CAT activity) when cyclin E was co-transfected: AR plus cyclin E expression vectors, 1000 molar excess of 5-OH—F, substantial CAT activity remained

CC(C)(O)C(=O)Nc1ccc([N+](=O)[O-])c(C(F)(F)F)c1 [5-hydroxyflutamide]
DHT-induced activation of the ARE-CAT reporter construct (AR expression vector, no cyclin E, 10^−9 M dihydrotestosterone, 10^−5 M 5-hydroxy-flutamide, 18 h): inhibited totally | AR function (CAT activity) when cyclin E was co-transfected: not sufficiently inhibited | AR function (CAT activity) when cyclin E was co-transfected (listed as 5-OH—F): not completely suppressed
